Test results from patent US10196631B2, “Cell separation method using a release system for cell-antibody-substrate conjugates containing a polyethylene glycol spacer unit” (dated 2019).

Assays:
CD8 positive cells [1] = details: compound 12 at 100 mM with streptavidin, 10 min (FIG. 5)
CD8 positive cells [2] = details: compound 12 with APC-streptavidin, 10 min (FIG. 6)
CD8 positive cells [3] = details: compound 12 with streptavidin, 10 min (FIG. 8)
CD8 positive cells [4] = details: compound 12 with APC-streptavidin, 10 min (FIG. 9)
[5] = test system: anti-CD8-PEO-Biotin/anti-Biotin-PE system; test: Dissociation of the anti-CD8-PEO-Biotin/anti-Biotin-PE system by compounds 10, 12 and 15, flow cytometry; details: different concentrations, room temperature, 10 min incubation (FIG. 4)

[N-]=[N+]=NCC(N)=O
effect of auxiliary release agent on streptavidin-mediated dissociation (CD8 positive cells [1]): accelerates the streptavidin-mediated dissociation process | effect of auxiliary release agent on APC-streptavidin-mediated dissociation (CD8 positive cells [2]): accelerates the APC-streptavidin-mediated dissociation process | effect of auxiliary release agent added to streptavidin on dissociation of the CD8-PEO-Biotin/anti-Biotin-MicroBead system (CD8 positive cells [3]): further improves the dissociation | effect of auxiliary release agent added to APC-streptavidin on dissociation of the CD8-PEO-Biotin/anti-Biotin-MicroBead system (CD8 positive cells [4]): further improves the dissociation | dissociation of the anti-CD8-PEO-Biotin/anti-Biotin-PE system by auxiliary release agent [5]: highly facilitate the dissociation
